Structures can show the parent of a compound that is named as a salt.
Molecular target: T1, human NTCP (Homo sapiens, UniProt Q14973)
T1 sequence (Q14973 1-349): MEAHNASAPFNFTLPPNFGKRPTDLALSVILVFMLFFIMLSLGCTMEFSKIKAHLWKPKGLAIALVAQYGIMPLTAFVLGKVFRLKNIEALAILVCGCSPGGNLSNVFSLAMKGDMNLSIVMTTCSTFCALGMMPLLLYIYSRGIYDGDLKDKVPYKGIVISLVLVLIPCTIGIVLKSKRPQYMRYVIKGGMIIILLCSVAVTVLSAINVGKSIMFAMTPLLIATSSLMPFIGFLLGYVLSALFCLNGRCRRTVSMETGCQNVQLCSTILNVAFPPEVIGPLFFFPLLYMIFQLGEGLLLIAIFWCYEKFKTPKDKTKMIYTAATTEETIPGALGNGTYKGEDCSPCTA
Test: Screening fluorescent competitive Myrcludex B-FITC binding assay (96-well, 10 µM drug)
Details: for B-score binding assay / %NTCP binding: screening Myrcludex B-FITC binding, 10 µM drug; for %NTCP binding: Prestwick library

| B-score binding assay | SMILES | also measured |
| --- | --- | --- |
| -0.252 | Clc1ccc(Nc2nnc(Cc3ccncc3)c3ccccc23)cc1 [Vatalanib] | – |
| -0.578 | COc1ccc(/C=C/C(=O)Nc2ccccc2C(=O)O)cc1OC [Tranilast] | – |
| -0.108 | c1ccc2c(c1)OCC(C1=NCCN1)O2 (stereo not shown) [Idazoxan hydrochloride] | – |
| -2.146 | C#C[C@]1(OC(C)=O)CC[C@H]2[C@@H]3CCC4=CC(=NO)CC[C@@H]4[C@H]3CC[C@@]21CC (mixture of isomers) [Norgestimate] | – |
| -0.207 | C#CCN(C)CCCOc1ccc(Cl)cc1Cl [Clorgyline hydrochloride] | – |
| -0.229 | Cc1ncc([N+](=O)[O-])n1CC(O)CCl (stereo not shown) [Ornidazole] | – |
| -2.107 | N[C@@H](Cc1ccc(O)c(O)c1)C(=O)O [Levodopa] | – |
| -0.842 | O=C1c2ccccc2C(=O)C1c1ccccc1 [Phenindione] | – |
| -1.868 | O=C(O)CCC(=O)Nc1ccc(S(=O)(=O)Nc2nccs2)cc1 [Succinylsulfathiazole] | – |
| – | COC(=O)Nc1nc2ccc(Sc3ccccc3)cc2[nH]1 [Fenbendazole] | B-score binding assay (B-score): 2.801 |
| -1.949 | CC1=C(/C=C/C(C)=C/C=C/C(C)=C\C(=O)O)C(C)(C)CCC1 [Isotretinoin] | – |
| 0.695 | COc1ccc(C(=O)NCc2ccc(OCCN(C)C)cc2)cc1OC [Itopride] | – |
| 0.174 | Cc1cccc(C)c1NC(=O)CN1CCN(CCCC(c2ccc(F)cc2)c2ccc(F)cc2)CC1 [Lidoflazine] | – |
| 0.509 | CC(Oc1c(Cl)cccc1Cl)C1=NCCN1 (stereo not shown) [Lofexidine] | – |
| -0.389 | C[C@]12CC[C@@H]3c4ccc(O)cc4CC[C@H]3[C@@H]1C[C@@H](O)[C@@H]2O [Estriol] | – |
| 0.177 | Clc1ccc(CCC(Cn2ccnc2)Sc2c(Cl)cccc2Cl)cc1 (stereo not shown) [Butoconazole nitrate] | – |
| -0.714 | C#C[C@]1(O)CC[C@H]2[C@@H]3CCc4cc(O)ccc4[C@H]3CC[C@@]21C [Ethinylestradiol] | – |
| -0.568 | Cc1cc(O)c(C(=O)N[C@@H](C(=O)N[C@@H]2C(=O)N3C(C(=O)O)=C(CSc4nnnn4C)CS[C@H]23)c2ccc(O)cc2)cn1 [Cefpiramide] | – |
| -0.04 | CCS(=O)(=O)CCn1c([N+](=O)[O-])cnc1C [Tinidazole] | – |
| – | CCCCC1(COC(=O)CCC(=O)O)C(=O)N(c2ccccc2)N(c2ccccc2)C1=O [Suxibuzone] | B-score binding assay (B-score): 1.495 |
| 1.416 | Nc1ccccc1S(N)(=O)=O [2-Aminobenzenesulfonamide] | – |
| -2.764 | CN[C@@H]1[C@H](O)[C@H](NC)[C@H]2O[C@@]3(O)C(=O)C[C@@H](C)O[C@H]3O[C@@H]2[C@H]1O.Cl.Cl [Spectinomycin dihydrochloride] | – |
| – | C[N+]1(C)CCC(=C(c2ccccc2)c2ccccc2)CC1 [Diphemanil methylsulfate] | B-score binding assay (B-score): 2.052 |
| -4.293 | C[C@@H]1C[C@H]2[C@@H]3CCC4=CC(=O)C=C[C@]4(C)[C@@]3(Cl)[C@@H](O)C[C@]2(C)[C@@]1(OC(=O)c1ccco1)C(=O)CCl [Mometasone furoate] | – |
| -2.476 | CC(C)(O)c1ccccc1CC[C@@H](SCC1(CC(=O)O)CC1)c1cccc(/C=C/c2ccc3ccc(Cl)cc3n2)c1 [Montelukast] | – |
| -0.573 | CCOC(=O)OC(C)OC1=C(C(=O)Nc2ccccn2)N(C)S(=O)(=O)c2ccccc21 (stereo not shown) [Ampiroxicam] | – |
| -1.144 | CC(=O)OCC(=O)[C@@]1(O)CC[C@H]2[C@@H]3CCC4=CC(=O)C=C[C@]4(C)[C@@]3(F)[C@@H](O)C[C@@]21C [Isoflupredone acetate] | – |
| -1.258 | Cc1c(Nc2ncccc2C(=O)O)cccc1C(F)(F)F [Flunixin meglumine] | – |

| B-score binding assay | SMILES | also measured |
| --- | --- | --- |
| -1.484 | Cc1cccc(C)c1NC(=O)C1CCCCN1C (stereo not shown) [Mepivacaine hydrochloride] | – |
| 1.508 | CC(C(=O)O)c1ccc(C(=O)c2cccs2)cc1 (stereo not shown) [Suprofen] | – |
| -0.209 | C#C[C@]1(O)CC[C@H]2[C@@H]3CCc4cc(OC)ccc4[C@H]3CC[C@@]21C [Ethynylestradiol 3-methyl ether] | %NTCP binding: 94.5203% |
| -0.682 | CC(C)[C@H](N)C(=O)OCCOCn1cnc2c(=O)[nH]c(N)nc21 [Valacyclovir hydrochloride] | – |
| -1.225 | CS(=O)(=O)c1ccc([C@@H](O)[C@@H](CF)NC(=O)C(Cl)Cl)cc1 [Florfenicol] | – |
| -0.631 | C=CCN1CCCC1CNC(=O)c1cc2[nH]nnc2cc1OC.Cl (stereo not shown) [Alizapride HCl] | %NTCP binding: 68.82% |
| 0.934 | O=c1[nH]c(=O)n(C2CCCO2)cc1F (stereo not shown) [Tegafur] | – |
| -0.02 | CCN(CCCCOC(=O)c1ccc(OC)c(OC)c1)C(C)Cc1ccc(OC)cc1 (stereo not shown) [Mebeverine hydrochloride] | – |
| 0.988 | CC(=O)[C@H]1CC[C@H]2[C@@H]3C=CC4=CC(=O)CC[C@@]4(C)[C@@H]3CC[C@]12C [Dydrogesterone] | – |
| 1.482 | CCN(CC)CCOC(=O)C(Cc1cccc2ccccc12)CC1CCCO1 (stereo not shown) [Nafronyl oxalate] | – |
| 1.351 | Cc1ccc(S(=O)(=O)NC(=O)NN2CCCCCC2)cc1 [Tolazamide] | – |
| -1.757 | C[C@H](O)C(=O)Nc1c(I)c(C(=O)NC(CO)CO)c(I)c(C(=O)NC(CO)CO)c1I [Iopamidol] | – |
| -0.508 | O=C(Nc1cccc2c(=O)cc(-c3nnn[nH]3)oc12)c1ccc(OCCCCc2ccccc2)cc1 [Pranlukast] | – |
| -0.084 | N#CC(c1ccc(Cl)cc1)c1c(Cl)cc(-n2ncc(=O)[nH]c2=O)cc1Cl (stereo not shown) [Diclazuril] | – |
| 0.104 | CCCc1nc2c(C)cc(-c3nc4ccccc4n3C)cc2n1Cc1ccc(-c2ccccc2C(=O)O)cc1 [Telmisartan] | – |
| -0.059 | CCN(CC)CCOC(=O)C(c1ccccc1)C1CCCCC1 (stereo not shown) [Drofenine hydrochloride] | – |
| -1.225 | CN1C[C@H](CNC(=O)OCc2ccccc2)C[C@@H]2c3cccc4c3c(cn4C)C[C@H]21 [Metergoline] | – |
| – | O=C(NCCO[N+](=O)[O-])c1cccnc1 [Nicorandil] | B-score binding assay (B-score): 2.801 |
| 1.133 | CN(C)CCOC(=O)C(c1ccccc1)C1(O)CCCC1 (stereo not shown) [Cyclopentolate hydrochloride] | – |
| 0.909 | O=C(O)Cc1ccccc1Nc1c(Cl)cccc1Cl [Diclofenac sodium] | – |
| -2.276 | NC(=O)c1cnccn1 [Pyrazinamide] | – |
| -8.884 | O=C1c2c(O)cccc2Cc2cccc(O)c21 [Anthralin] | – |
| -1.104 | O=C(C1CCCCC1)N1CC(=O)N2CCc3ccccc3C2C1 (stereo not shown) [Praziquantel] | – |
| -1.274 | COc1cc(N)c(Cl)cc1C(=O)NC1CCN(CCCOc2ccc(F)cc2)CC1OC (stereo not shown) [Cisapride] | – |
| 1.14 | CN1CCC(=C2c3ccccc3Sc3ccccc32)CC1 [Pimethixene maleate] | – |
| 0.017 | O=C(O)c1cc(-c2ccc(F)cc2F)ccc1O [Diflunisal] | – |
| 1.571 | N[C@@H](C(=O)N[C@@H]1C(=O)N2C(C(=O)O)=C(Cl)CC[C@H]12)c1ccccc1 [Loracarbef] | %NTCP binding: 88.1266% |

| SMILES | B-score binding assay | also measured |
| --- | --- | --- |
| Cc1c(Cl)cccc1Nc1ccccc1C(=O)O [Tolfenamic Acid, Tolfenamic acid] | -4.587 | – |
| Nc1c2c(nc3ccccc13)CCCC2O.O=C(O)/C=C\C(=O)O (racemic) [Hydroxytacrine maleate (R,S)] | -4.051 | – |
| COc1ccc([C@@H]2CC(=O)c3c(O)cc(O[C@@H]4O[C@H](CO[C@@H]5O[C@@H](C)[C@H](O)[C@@H](O)[C@H]5O)[C@@H](O)[C@H](O)[C@H]4O)cc3O2)cc1O [Hesperidin] | -0.676 | %NTCP binding: 50.2802% |
| CC[C@@]1([C@H]2O[C@H]([C@H]3O[C@@](O)(CO)[C@H](C)C[C@@H]3C)C[C@H]2C)CC[C@H]([C@@]2(C)CC[C@]3(C[C@H](O)[C@@H](C)[C@@H]([C@H](C)[C@H](OC)[C@@H](C)C(=O)[O-])O3)O2)O1.[Na+] [Monensin sodium salt] | -0.589 | – |
| Br.C[N+]1([O-])[C@@H]2CC(OC(=O)[C@H](CO)c3ccccc3)C[C@H]1[C@@H]1O[C@@H]12 (stereo partly shown) [Scopolamin-N-oxide hydrobromide] | -0.39 | – |
| C[C@@H]1O[C@@H](O[C@@H]2C=C3CC[C@@H]4[C@H](CC[C@]5(C)[C@@H](c6ccc(=O)oc6)CC[C@]45O)[C@@]3(C)CC2)[C@H](O)[C@H](O)[C@H]1O [Proscillaridin A] | -0.877 | – |
| Cl.OC1CCCCC1N1CCC(c2ccccc2)CC1 (stereo not drawn) [L(-)-vesamicol hydrochloride] | -2.139 | – |
| CC[C@H](C)[C@H]1O[C@]2(C=C[C@@H]1C)C[C@@H]1C[C@@H](C/C=C(\C)[C@@H](O[C@H]3C[C@H](OC)[C@@H](O[C@H]4C[C@H](OC)[C@@H](O)[C@H](C)O4)[C@H](C)O3)[C@@H](C)/C=C/C=C3\CO[C@@H]4[C@H](O)C(C)=C[C@@H](C(=O)O1)[C@]34O)O2 [Avermectin B1a] | -6.584 | – |
| CCN(C)C(=O)Oc1cccc([C@H](C)N(C)C)c1 [Rivastigmine] | 0.007 | remaining activity at 10 µM (0.5 h, read-out: %NTCP binding, screening Myrcludex B-FITC binding, 10 µM drug, Prestwick library): 85.7% |
| CC(CN(C)C)CN1c2ccccc2CCc2ccccc21.O=C(O)/C=C\C(=O)O (stereo not shown) [Trimipramine maleate salt] | -2.482 | – |
